The subject of test [1] is LLC-PK1 cells. The test is described as follows: Apical uptake of L-DOPA in LLC-PK1 cells. The class given is cell-based, porcine. As to conditions: 6 min incubation, medium concentration 0.5 μM. As to the method:
Cell culture LLC-PK1 cells, a porcine-derived proximal renal tubule epithelial cell line which retains several properties of proximal tubular epithelial cells in culture (Hull, R. N., et al., 1976, In Vitro 12; 670-677), were obtained from the American Type Culture Collection (Rockville, Md.). LLC-PK1 cells (ATCC CRL 1392; passages 198-206) and were maintained in a humidified atmosphere of 5% CO2-95% air at 37° C. and grown in Medium 199 (Sigma Chemical Company, St. Louis, Mo., USA) supplemented with 100 U/ml penicillin G, 0.25 μg/ml amphotericin B, 100 μg/ml streptomycin (Sigma), 3% foetal bovine serum (Sigma) and 25 mM N-2-hydroxyethylpiperazine-N'-2-ethanesulfonic acid (HEPES; Sigma). For subculturing, the cells were dissociated with 0.05% trypsin-EDTA, split 1:4 and subcultured in Costar flasks with 75- or 162-cm^2 growth areas (Costar, Badhoevedorp, The Netherlands). […] The cell medium was changed every 2 days, and the cells reached confluence after 3-5 days of incubation. For 24 hours prior to each experiment, the cell medium was free of foetal bovine serum. […] Km and Vmax values for the uptake of L-DOPA, as determined in saturation experiments, were calculated from non-linear regression analysis using the GraphPad Prism statistics software package ([…]. Neubig. GraphPad Prism (version 1.0). San Diego, USA: GraphPad Prism Software Inc., 1994).

Test [2] can be described thus: Levels of L-DOPA, dopamine, DOPAC and HVA in rat brain and kidney. Format: in vivo. Here is the method: Male Wistar rats weighing 170-280 g, kept two per cage under controlled environmental conditions (12 h light/dark cycle and room temperature 24° C.), were used in all experiments. […] The high pressure liquid chromatograph system consisted of a pump (Gilson model 302; Gilson Medical Electronics, […] Bel, France) connected to a manometric module (Gilson model 802 C) and a stainless-steel 5 μm ODS column (Biophase; Bioanalytical Systems, West Lafayette, Ind.) of 25 cm length; samples were injected by means of an automatic sample injector (Gilson model 231) connected to a Gilson dilutor (model 401). […] The detection was carried out electrochemically with a glassy carbon electrode, an Ag/AgCl reference electrode and an amperometric detector (Gilson model 141); the detector cell was operated at 0.75 V. The current produced was monitored using the Gilson 712 HPLC software.

The mark [3] stands for this setting: kidney, L-DOPA 12 mg/kg alone, 60 min.

SMILES strings stand for the structures.

Regarding `N[C@@H](Cc1ccc(O)c(O)c1)C(=O)O` [L-DOPA, L-3,4-dihydroxyphenylalanine], the “cell concentration of L-DOPA relative to medium concentration” value in test [1] amounted to 8.0±0.8 times. Also, in test [2] (setting [3]), the DOPAC level was determined as 84.3 ± 23.3 ng/g, the HVA level was found to be 10235.5 ± 3772.9 ng/g and the L-DOPA level came to 17.4 ± 2.1 ng/g.
Take `Oc1ccc(C=Cc2cc(O)cc(O)c2)cc1` [resveratrol]: in test [2] (brain, R 1.0 mg/kg 30 min before L 12 mg/kg + B 3 mg/kg, 60 min after L + B), the DA level worked out at 221.9 ± 41.5 ng/g.

Values taken from patent US20040242503A1, “Compositions comprising blockers of l-dopa renal cell transfer for the treatment of parkinson's disease” (priority 2000, published 2004).
